Molecular target: Human immunodeficiency virus type 1 protease (Human immunodeficiency virus 1, UniProt Q72874)
Test: Inhibitory activity against HIV-1 protease
In short: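 Purified HIV-1 protease, prepared by a previously described method. IC50 reported; determinations were single (n = 1) unless otherwise indicated.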

IC50: 132 nM
Structure (SMILES): CC(C)(C)NC(=O)[C@@H]1C[C@@H]2CCCC[C@@H]2CN1C[C@@H](O)[C@H](Cc1ccccc1)NC(=O)O[C@H]1CCOC1

Source: ChEMBL document CHEMBL1127636, “The development of cyclic sulfolanes as novel and high-affinity P2 ligands for HIV-1 protease inhibitors” (J Med Chem, 1994)
